# AlphaSeq binding of Ab-14 light chain variants to a spike HR2 peptide

Source: Li et al. 2023 (doi:10.1038/s41467-023-39022-2), MIT Lincoln Laboratory and A-Alpha Bio; data file from the FLAb repository.

Binding partner: SARS-CoV-2 spike HR2 peptide, sequence PDVDLGDISGINAS.

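Phage display of a naive human antibody library on the peptide gave the parent. The variants were designed computationally from a first round of random CDR variants and then made and measured. Their group label is 14L_Ctrl (Ctrl: baseline library sampled from a position-specific scoring matrix, with some repeated check sequences). The scFvs were displayed on barcoded MATa yeast, the peptide on MATalpha yeast. The frequency of each diploid, read from paired DNA barcodes, reflects how well the two displayed proteins bind. Each replicate has its own calibration line, from reference interactions of the BCL2 family. Mating was done six times.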

Parent: Ab-14, a human scFv built as VH, three GGGGS repeats, VL. Only the CDRs of the light chain vary.
VH: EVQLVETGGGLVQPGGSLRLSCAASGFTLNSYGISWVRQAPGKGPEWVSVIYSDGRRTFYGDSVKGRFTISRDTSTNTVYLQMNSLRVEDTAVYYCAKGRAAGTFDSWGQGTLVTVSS
VL: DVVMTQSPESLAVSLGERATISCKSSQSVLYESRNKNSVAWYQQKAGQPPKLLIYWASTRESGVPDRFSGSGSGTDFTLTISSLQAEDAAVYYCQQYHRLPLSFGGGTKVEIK

Changes read parent residue, position, new residue, counted from the first residue of the VL shown. Numbers give log10(Kd / nM), so 0 is 1 nM and 3 is 1 µM. Smaller is tighter. "nd" marks a missing value. The strain was present, yet no cells mated with the target were sequenced in that replicate, which points to weak or no binding. In the paper, a design with two or fewer of six values counts as a poor binder.

| # | changes | log10 Kd, replicates | empty controls |
|---|---|---|---|
| 1 | S25M L30I Y31F E32N | 1.20 1.15 0.93 1.12 1.17 1.15 | 1 of 18 (3.41) |
| 2 | S25L N35V Y97V | 1.70 nd nd nd nd nd | 0 of 18 |
| 3 | N35G W56A S58D | 1.37 1.44 1.69 1.12 1.24 1.52 | 0 of 18 |
| 4 | S28L V29I N35Y | nd nd nd nd nd nd | 0 of 18 |
| 5 | V29M L30T N35A | 3.34 1.10 nd 2.08 1.59 nd | 0 of 18 |
| 6 | S28G R34Q W56G E61P S62F Q95Y H98V | nd nd nd nd nd 3.72 | 1 of 18 (2.27) |
| 7 | R34E W56R E61N | 1.13 1.03 1.18 1.06 0.81 1.18 | 3 of 18 (3.17) |
| 8 | R99S S103F | nd nd nd nd nd nd | 1 of 18 (1.81) |
| 9 | S25I W56A T59H L102W | 1.19 0.48 0.45 0.60 0.70 0.94 | 3 of 18 (3.84) |
| 10 | Q95F | nd nd nd nd nd nd | 0 of 18 |
| 11 | V29R | 1.97 nd nd 0.84 nd nd | 0 of 18 |
| 12 | S26D S33N | nd 2.24 1.61 1.91 2.12 1.89 | 0 of 18 |
| 13 | Q27L Y31P H98V | 1.62 1.25 0.66 0.63 1.65 1.48 | 0 of 18 |
| 14 | L30E R34E S103Y | nd nd nd nd 2.06 1.33 | 0 of 18 |
| 15 | Q27Y K36G S103K | nd nd nd nd 2.49 nd | 0 of 18 |
| 16 | R34T S62P Q96T | 1.98 1.96 nd 2.12 2.61 nd | 4 of 18 (2.03) |
| 17 | Y31V R34N S62D P101E | nd nd 1.93 1.01 1.55 3.37 | 0 of 18 |
| 18 | S25L K36H | 0.75 0.59 0.35 0.13 0.90 0.72 | 0 of 18 |
| 19 | S33E Q96T | nd nd 1.14 nd 3.42 2.23 | 0 of 18 |
| 20 | S26E | nd nd nd 1.89 nd nd | 0 of 18 |
| 21 | K24Y W56D S58D | 0.50 0.44 0.44 0.25 0.42 0.46 | 2 of 18 (2.88) |
| 22 | L102G | nd nd nd nd nd nd | 0 of 18 |
| 23 | S26D V29D Q95F L100E | 2.04 2.79 nd nd nd nd | 0 of 18 |
| 24 | Q27M L30Q | nd 1.40 1.94 2.64 1.90 2.26 | 0 of 18 |
| 25 | Y31F K36M | 3.04 nd 1.16 nd nd nd | 0 of 18 |
| 26 | S25F S26G S38C S58T S103G | 1.82 1.57 nd 2.38 3.16 2.10 | 0 of 18 |
| 27 | W56G S103K | 1.33 1.36 1.17 0.72 0.93 1.08 | 0 of 18 |
| 28 | Y97T R99K | nd nd nd nd nd nd | 0 of 18 |
| 29 | S33Q A40S | nd nd nd nd nd 1.56 | 0 of 18 |
| 30 | R34N S62E | 2.13 1.24 2.19 2.00 2.58 0.85 | 0 of 18 |
| 31 | S26L R34L S38N S58Y S62K H98V | nd nd nd nd nd nd | 0 of 18 |
| 32 | S28E W56N | 0.24 0.17 0.01 0.29 0.20 0.29 | 1 of 18 (3.00) |
| 33 | S25L N37Q W56A | -0.16 0.34 0.04 0.58 0.28 0.00 | 2 of 18 (1.72) |
| 34 | L102K | nd nd nd nd nd nd | 0 of 18 |
| 35 | L30D K36N W56G A57G E61I | 0.44 0.78 0.33 0.35 0.40 0.21 | 0 of 18 |
| 36 | R34N S38N W56A | 0.26 -0.21 0.20 -0.14 -0.05 0.23 | 0 of 18 |
| 37 | S25V R34W Q96T H98F | nd nd nd nd nd nd | 0 of 18 |
| 38 | L30T W56N | 0.73 1.06 0.61 0.72 0.84 1.23 | 2 of 18 (3.00) |
| 39 | S25V V29T S33E R34A K36F Q95Y | nd nd nd nd nd nd | 0 of 18 |
| 40 | S26M Y31S | 2.28 2.51 nd 2.95 2.22 3.04 | 1 of 18 (2.71) |
| 41 | S33D V39H H98A | nd nd nd 2.08 nd nd | 0 of 18 |
| 42 | S25W Q27D T59E Q96S Y97I | nd nd nd nd nd 1.53 | 0 of 18 |
| 43 | S26M Q27I R34L W56G S62E P101C | nd 1.98 nd nd 3.26 1.46 | 0 of 18 |
| 44 | S25L K36T W56K | 0.64 0.27 0.17 0.44 0.08 0.19 | 0 of 18 |
| 45 | S25I W56Q H98P | 1.21 0.74 0.60 0.58 0.55 0.75 | 0 of 18 |
| 46 | Q27I Y31L | nd nd nd nd nd nd | 0 of 18 |
| 47 | S25F S28G V29P L30E H98D | 0.42 2.16 0.75 0.79 1.37 0.88 | 0 of 18 |

Values of this round are not directly comparable with the first-round values of the same sequences. Nonspecific signal, from three strains lacking the peptide, appeared in 4% of pairings of all light chain designs, centred on 2.64 (5% of these signals below 1.59); values are not corrected for it. For each scFv, signals with the empty controls are counted beside the result, with their mean in brackets. Of ten entries with the parent sequence, four were seen in most replicates (averages 0.34 to 2.37), three in one and three in none, so single entries are noisy.